The text below walks through data of patent publication US10799478B2, “Treatment of androgen deprivation therapy associated symptoms” (priority 2014, dated 2020).

Like-named read-outs stand apart in the source and are kept apart here. Some results are limits rather than exact numbers.

In one data set the test system is Orx rats. Description: Orchidectomized Rat Assay. The data set is classed as in vivo. The settings on record: 20 mg/Kg/d.
The next data set concerns ORX Wistar male rats. Description: In Vivo Study to Explore Direct Antagonist Effect of Example 1 in the Presence of TE. Further details: species or system rat. To be noted: ORX + Example 1 10 mg/kg/d without TE, vs TE alone. As to the method: Route of administration for all groups except TE is oral. TE is administered subcutaneously. At the end of 8 weeks of daily dosing, rats are euthanized, weighed & tissue harvested. Levator ani, prostates, and seminal vesicles are collected from each animal. Results are plotted as means±SE.

The test system of data set [1] is LnCAP human prostate cancer cells. Description: LnCAP Gene Expression. The class given is cell-based.
Data set [2] in a line: Four Week Oral Toxicity Study in Rats. The settings on record: male, CD [Crl:CD (SD)], rat, plasma. The data set is classed as in vivo. As to the method: Three treatment groups of 10 male and 10 female CD® [Crl:CD® (SD)] rats are administered the test article at respective dose levels of 15, 150, and 1500 mg/kg/day. […] The test article or vehicle is administered to all groups via oral gavage, once a day for 28 consecutive days, at a dose volume of 15 mL/kg. Additionally, three groups of 18 animals/sex/group serves as toxicokinetic (TK) animals and receives the test article in the same manner and dose volume as the main study groups at respective dose levels of 15, 150, and 1500 mg/kg/day. One additional group of three animals/sex serves as the toxicokinetic control and receives the vehicle in the same manner and dose volume as the treated groups.
Observations for morbidity, mortality, injury, and the availability of food and water are conducted twice daily for all animals. Observations for clinical signs are conducted weekly for main study animals only. Body weights were measured and recorded weekly for all animals and food consumption is measured and recorded weekly for main study animals. Ophthalmoscopic examinations are conducted pretest on all animals and prior to terminal necropsy for main study animals only. Blood samples for clinical pathology evaluations are collected from all main study animals at necropsy. Urine samples are collected on the last day of dosing. Blood samples for determination of the plasma concentrations of the test article are collected from TK animals at designated time points on Days 1 and 28. After the final blood collection, the TK animals are euthanized and the carcasses are discarded without further evaluation. Liver samples for hepatic enzyme induction analysis are collected at terminal necropsy from main study animals. At study termination, necropsy examinations are performed, organ weights are recorded, and prostate and seminal vesicle tissues are microscopically examined. Additional microscopic examination is performed on the left testis from the first five male rats/group at necropsy.

The nature of data set [3]: 52 Week Toxicity and Toxicokinetic Study in Dogs. To be noted: male, beagle, dog, in vivo, po. As to the method:
Male and female purebred beagle dogs are assigned to groups, and doses are administered according to Table 9 via oral capsules containing 1 ml/kg of 0 [1% (w/v) carboxymethylcellulose sodium (low viscosity/25-50 cps), 0.5% (w/v) sodium lauryl sulfate and 0.05% (v/v) Dow Corning® Antifoam 1510-US in reverse osmosis water] […] All animals receive the same number of capsules, and Group 1 animals receive capsules containing vehicle control article only. Three animals per sex from Groups 1 and 4 are designated as recovery animals.
Assessment of toxicity is based on mortality, clinical signs, body weight and body weight change, food consumption, ophthalmic and neurologic evaluations, ECG measurements, hormone analysis (testosterone, progesterone, luteinizing hormone, and follicle stimulating hormone), semen evaluation (ejaculate volume and sperm number, density, morphology, and motility), and clinical and anatomic pathology. Blood samples are collected for exploratory metabolite analysis and toxicokinetic evaluations.

Data set [4] can be described thus: 6 month treatment of dogs (Table 10). The settings on record: male, dog, in vivo, 300 mg/kg/day.

For the molecule `CC(C)OC(=O)N[C@H]1Cc2c(n(Cc3ccccn3)c3ccc(C#N)cc23)C1` (single isomer, unassigned) [Example 1], the “LV-TBMC (mg) ± SD” value in the data set with Orx rats stood at 1.6943 ± 0.0264 mg. Further, in the data set on ORX Wistar male rats, the “Prostate Weights, Abs(Dif) − LSD” value is given as 0.357. Further, the EC50 in data set [1] (CLUSTERIN gene, read-out: LnCAP Gene Expression EC50 (nM) CLUSTERIN) was greater than 100 nM; in data set [1] (PSA gene, read-out: LnCAP Gene Expression EC50 (nM) PSA) it was 2.64 nM. The AUC(0-t) in data set [2] (oral, males, 1500 mg/kg/day, read-out: Mean steady-state systemic exposure (AUC0-24 hr)) is 102000 ng·h/mL; in data set [2] (po, rats, 1 month, 15 mg/kg/day, read-out: Male group mean AUC0-24 hr near termination), 35700 ng·h/mL; in data set [2] (po, rats, 1 month, 150 mg/kg/day, read-out: Male group mean AUC0-24 hr near termination), 72300 ng·h/mL; in data set [2] (po, rats, 1 month, 1500 mg/kg/day, read-out: Male group mean AUC0-24 hr near termination), 102000 ng·h/mL; in data set [3] (dogs, 12 months, 10 mg/kg/day, read-out: Male group mean AUC0-24 hr near termination) it was 13400 ng·h/mL; in data set [3] (dogs, 12 months, 100 mg/kg/day, read-out: Male group mean AUC0-24 hr near termination), 22600 ng·h/mL. Besides, the AUC(0-t) worked out at 22600 ng·h/mL in data set [3] (males, 100 mg/kg, after 361 days of dosing, read-out: AUC0-24 h) and 53000 ng·h/mL in data set [4].
